Values quoted from earlier work, collected in US6395467B1 (priority 1998, dated 2002).

Test system: rabbit renal cortical slices
Conditions: 50% w/v; cited from earlier work

In the case of `CC(N)=O` [Acetamide], the “toxicity to kidney slices” value is given as “essentially non-toxic”.
